# Yeast mating assay 1: variants of the scFv Ab-14

Source: Engelhart et al. 2022 (doi:10.1038/s41597-022-01779-4), MIT Lincoln Laboratory and A-Alpha Bio; data file from the FLAb repository.

Binding partner: SARS-CoV-2 spike HR2 peptide, sequence PDVDLGDISGINAS.

Parent: Ab-14, a human scFv built as VH, the linker GGGGSGGGGSGGGGS, VL. Only the CDRs of the light chain vary.
VH: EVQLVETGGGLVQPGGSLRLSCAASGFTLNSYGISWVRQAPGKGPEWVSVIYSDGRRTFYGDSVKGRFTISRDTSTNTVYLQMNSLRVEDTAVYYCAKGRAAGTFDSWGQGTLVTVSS
VL: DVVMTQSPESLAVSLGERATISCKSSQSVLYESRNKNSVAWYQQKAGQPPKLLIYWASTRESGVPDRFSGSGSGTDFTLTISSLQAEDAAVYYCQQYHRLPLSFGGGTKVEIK

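Phage display of a naive human antibody library on the peptide gave the parent. In library AAYL50, one, two or three CDR residues were substituted; doubles and triples were drawn at random. The scFvs were displayed on barcoded MATa yeast, the peptide on MATalpha yeast. The frequency of each diploid, read from paired DNA barcodes, reflects how well the two displayed proteins bind. Each replicate has its own calibration line, from reference interactions of the BCL2 family. There are three technical replicates.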

Substitutions are numbered in sequence along the VL above, starting at 1 (not Kabat).
The read-out is the apparent dissociation constant on a log10 scale (nM): the lower, the stronger.
Averages over replicates are reported, and they cover detected replicates only.
"nd" means that the variant was in the library but no mating with the target was seen in any replicate; the authors take this as a sign of poor binding, and no number exists.

| changes | mean log10 Kd (nM) | seen in |
|---|---|---|
| V39C Q96N L100I | 5.31 | 1 of 3 |
| S26N Q27N | 0.94 | 3 of 3 |
| S62H Y97I P101Q | nd | 0 of 3 |
| R60M Q95P S103L | 2.96 | 1 of 3 |
| N35I S58D T59G | 3.70 | 1 of 3 |
| S28W A40V | 5.05 | 1 of 3 |
| S28H W56T S103H | 1.43 | 3 of 3 |
| Y31N K36P | 1.04 | 3 of 3 |
| A40S T59H R60M | nd | 0 of 3 |
| N37P S38Q V39F | nd | 0 of 3 |
| S33E N37Q A57C | nd | 0 of 3 |
| Y31A K36H A57V | 1.47 | 3 of 3 |
| Y31I S33A R34N | 0.95 | 3 of 3 |
| W56S S62H S103F | 0.31 | 3 of 3 |
| K24S Q95K Y97R | nd | 0 of 3 |
| S26V Y31S R60Y | 3.62 | 1 of 3 |
| Y31A R34F E61Y | 0.18 | 3 of 3 |
| S58C H98P | 2.42 | 2 of 3 |
| Y31T Q95K Q96R | 1.51 | 3 of 3 |
| N35R K36Q Q96S | 0.77 | 3 of 3 |
| N35R W56E | 1.54 | 3 of 3 |
| S25M R34H R60Q | 1.12 | 3 of 3 |
| Y31K Q96R H98I | 4.97 | 1 of 3 |
| V39T Q96N R99Q | 3.44 | 3 of 3 |
| K24N Q27A N35P | 2.91 | 2 of 3 |
| V29P Y31S E32P | 1.13 | 3 of 3 |
| V29Y S33H K36H | 2.34 | 3 of 3 |
| Y31M E61F | 1.03 | 3 of 3 |
| S28E W56Y E61M | 1.77 | 3 of 3 |
| S25P S62W S103P | 3.09 | 3 of 3 |
| E61S Y97V R99I | 2.20 | 3 of 3 |
| E32D T59H S62M | 0.92 | 3 of 3 |
| V29Q R60I S62E | 1.92 | 3 of 3 |

Continued, with the values leading:

| mean log10 Kd (nM) | seen in | changes |
|---|---|---|
| 1.17 | 3 of 3 | S25K V29C H98E |
| 2.05 | 3 of 3 | K24A K36E R60L |
| nd | 0 of 3 | E32K A57P |
| 4.09 | 3 of 3 | S25D T59Y R99F |
| 3.82 | 3 of 3 | Q27G S38M R99S |
| nd | 0 of 3 | W56C S58T Q95M |
| 5.20 | 1 of 3 | N35P W56R Q95Y |
| 0.95 | 3 of 3 | V29G W56A Y97F |
| 4.62 | 1 of 3 | K24N A57H |
| nd | 0 of 3 | E32I W56V H98R |
| 3.00 | 3 of 3 | K36C S58G S103C |
| 0.98 | 3 of 3 | T59Q E61L Q96P |
| 0.07 | 3 of 3 | S38N W56E R60H |
| nd | 0 of 3 | S26P A40T |
| 3.60 | 1 of 3 | Q27R N37V Q96A |
| 1.53 | 3 of 3 | S26K L30N S33R |
| nd | 0 of 3 | E32R S38L A40N |
| 0.42 | 3 of 3 | S25M S33M E61C |
| 1.69 | 3 of 3 | K24E S62R |
| nd | 0 of 3 | S58K Q96I R99I |
| nd | 0 of 3 | S33K S58F R99V |
| 3.95 | 2 of 3 | W56H T59N S62N |
| -0.01 | 3 of 3 | K36Y W56H |
| nd | 0 of 3 | Y31A A40P |
| nd | 0 of 3 | V29R N35G Q96R |
| 0.80 | 3 of 3 | Y97G R99I L100K |
| nd | 0 of 3 | S26A N37S Q96V |
| 0.41 | 3 of 3 | S28A V29Q R34T |
| 3.64 | 3 of 3 | A57H T59V |
| 1.35 | 3 of 3 | K24V W56M T59A |
| 2.92 | 1 of 3 | S25H S28A L102S |
| nd | 0 of 3 | S26N Y31G P101K |
| nd | 0 of 3 | S26H L100F |

The first 4 variants above that were never detected:

| changes | mean log10 Kd (nM) | seen in |
|---|---|---|
| S62H Y97I P101Q | nd | 0 of 3 |
| A40S T59H R60M | nd | 0 of 3 |
| N37P S38Q V39F | nd | 0 of 3 |
| S33E N37Q A57C | nd | 0 of 3 |

Parent in this assay: reference entry 0.65, copy in this library 1.68.
Nonspecific signal, from three strains lacking the peptide, appeared in 18% of pairings of library AAYL50, centred on 4.19 (5% of these signals below 2.99); values are not corrected for it.